Experimental data as given in patent US9624243B2, “Heterocyclic compounds and methods of their use” (Novartis AG, priority 2012, dated 2017).

Amino acid sequences for entries named in this document (tags omitted).
UniProt P50052, whole entry, species assumed: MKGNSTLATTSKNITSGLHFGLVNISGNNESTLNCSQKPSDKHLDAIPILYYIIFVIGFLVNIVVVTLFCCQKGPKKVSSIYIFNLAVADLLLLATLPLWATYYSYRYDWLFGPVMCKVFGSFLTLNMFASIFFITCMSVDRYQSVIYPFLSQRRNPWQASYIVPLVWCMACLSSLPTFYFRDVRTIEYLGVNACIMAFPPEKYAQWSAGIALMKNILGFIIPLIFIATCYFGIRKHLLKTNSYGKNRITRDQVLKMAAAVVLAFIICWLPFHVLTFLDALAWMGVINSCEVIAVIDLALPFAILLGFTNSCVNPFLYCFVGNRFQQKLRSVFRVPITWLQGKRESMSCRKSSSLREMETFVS

What follows are compounds tested against AT2 receptor (Homo sapiens (Human), UniProt P50052) (assay: AT2 Receptor Binding). Settings: HEK293 AT2 receptor transient cell membranes, [125I]-CGP42112A.
Protocol: 1. Trypsin-EDTA (for Preparation of 100 mL)
• Dissolve trypsin in 2% EDTA and PBS completely; sterilize the solution by passing through a […] membrane filter; store at 4° C.
2. DMEM Medium (for Preparation of 1 L) • The powder was dissolved into 950 mL of distilled water with gentle stirring until the solution becomes clear. • Add. NaHCO3 1.176 g for DMEM medium. • Adjust pH of medium to 0.2˜0.3 below final working pH using 1 M NaOH or 1 M • HCl. Add slowly with stirring. • Dilute to 1 liter with ddH2O. • Sterilize the medium immediately by filtration. • Store at 4° C.
3. TE Buffer • 20 mM Tris-HCl, pH 7.4, • 5 mM EDTA
4. Binding Assay Buffer • 50 mM Hepes, pH 7.4 • 5 mM MgCl2 • 1 mM CaCl2 • 0.2% BSA
5. Wash Buffer • 50 mM Hepes, pH 7.4 Procedures for HEK293AT2 Receptor Transient Cell Transfection • Cells were plated into 150 mm dish at 50% density for transient transfection. Cells were ready for transfection after overnight incubation (the confluence reaches around 80%). • 75 μL Lipofectamine™2000 diluted in 6.25 mL OptiMEM I Reduced Serum Medium, was mixed gently, and incubated at room temperature for 5 minutes. 50 μg expression plasmid DNA diluted in 6.25 mL OptiMEM I Reduced Serum Medium without serum was mixed gently. • After the 5 minute incubation, the diluted DNA was combined with the diluted Lipofectamine™2000 (total volume is 12.5 mL). The mixture was mixed gently and incubated for 30 minutes at room temperature to allow the DNA-Lipofectamine™2000 complexes to form. • The 12.5 mL DNA-Lipofectamine™2000 complexes were added into the 150 mm dish and mixed gently by rocking the dish back and forth. • The cells were incubated at 37° C. with 5% CO2 for 48 hours. Cells were collected and stored frozen at −80° C. Procedures for HEK293AT2 Receptor Cell Membrane Preparation • Frozen HEK293AT2 receptor (transient transfected) cells were homogenized in ice cold TE buffer for 10s. • The homogenate was centrifuged at 25,000 g for 30 minutes. • The pellet was resuspended in ice cold tissue buffer. • Protein concentrations were determined using Bradford assay method with BSA as standard. • The membrane protein was frozen under −80° C. Compound Preparation
Solutions of all compounds were prepared bymicroplate liquid handling equipment such as Janus or Precision 2000. Compounds, dissolved in DMSO were stored in a Freezer. Compounds were prepared from 30 mM in 100% DMSO.
Step 1: Dose Plate Preparation (96 Well Plate)
• Add the 3 μL [30 mM] compound stock to column 1 on the plate. • Add 15 μL of 100% DMSO to column 1. • Add 10.81 μL of 100% DMSO to column 2-12. • Transfer 5 μL from column 1 into column 2 (half log dilution). • Transfer 5 μL from column 2 into column 3 (half log dilution). • Transfer 5 μL from column 3 into column 4 (half log dilution). • Transfer 5 μL from column 4 into column 5 (half log dilution). • Transfer 5 μL from column 5 into column 6 (half log dilution). • Transfer 5 μL from column 6 into column 7 (half log dilution). • Transfer 5 μL from column 7 into column 8 (half log dilution). • Transfer 5 μL from column 8 into column 9 (half log dilution). • Transfer 5 μL from column 9 into column 10 (half log dilution) • Transfer 5 μL from column 10 into column 11 (half log dilution) • Transfer 5 μL from column 11 into column 12 (half log dilution).
All the compounds were diluted using Precision 2000 microplate liquid handling equipment. The top concentration of compound was 5 mM with 100% DMSO.
Step 2: Working Plate Preparation (96 Well Plate) […]

Structure (SMILES)	IC50 [nM]
CN(C[C@@H]1C[C@H]1c1ccccc1)[C@H]1C[C@@H](C(=O)O)N(C(=O)C(c2ccccc2)c2ccccc2)C1 (racemic) [Compound 63, (2S,4S)-1-(2,2-diphenylacetyl)-4-(methyl((2-phenylcyclopropyl)methyl)amino)pyrrolidine-2-carboxylic acid]	483
O=C(O)[C@@H]1C[C@H](OC/C=C/c2ccccc2)CN1C(=O)C(c1ccccc1)c1ccccc1 [Compound 5, (2S,4S)-4-cinnamyloxy-1-(2,2-diphenylacetyl)pyrrolidine-2-carboxylic acid]	90
O=C(O)[C@@H]1C[C@@H](OC/C=C/c2ccccc2)CN1C(=O)C(c1ccccc1)c1ccccc1 [Compound 8, (2S,4R)-4-(cinnamyloxy)-1-(2,2-diphenylacetyl)pyrrolidine-2-carboxylic acid]	512
O=C(O)[C@@H]1C[C@@H](OCCCc2ccccc2)CN1C(=O)C(c1ccccc1)c1ccccc1 [Compound 9, (2S,4R)-1-(2,2-diphenylacetyl)-4-(3-phenylpropoxy)pyrrolidine-2-carboxylic acid]	98.6
O=C(O)[C@H]1C[C@@H](OCCCc2ccccc2)CN1C(=O)C(c1ccccc1)c1ccccc1 [Compound 76, (2R,4R)-1-(2,2-diphenylacetyl)-4-(3-phenylpropoxy)-pyrrolidine-2-carboxylic acid]	3600
